Screens as filed in PubChem.
Hits are enriched below; roughly 4.2% of the tested compounds scored in any of these assays.
HDAC3 inhib = blocks human histone deacetylase 3; O15379; recombinant HDAC3, fluorogenic peptide/trypsin coupled, fluorescence; inhibition, % at 8.3 µM; actives 0.15% (n = 320,000); in the data active means inhibition above about 26%, passing the limit was not always enough
MC4R antagonist = human MC4R antagonism in cAMP assay; actives 0.48% (n = 360,000); inhibition, % at 6.5 µM; P32245; MC4R-expressing cells, MTII-stimulated cAMP, LANCE TR-FRET;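 active means inhibition above its plate's cutoff, the mean of tested wells on that plate plus 3 SD, cut at about 29% in these data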;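 further: 0% = Melanotan II alone and 100% = Melanotan II plus saturating MCL0020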
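Material – human MC4R-expressing U2OS cells · Repeats – no replicates · Detection – TR-FRET with Eu-cAMP and labeled anti-cAMP, 671 nm · Times – compound 30 min, challenge 1 h, detection 1 h · Compound – single nominal compound dose of 6.5 µM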
Yeast UUG start = alters start codon recognition fidelity in yeast | S. cerevisiae UUG-firefly luciferase reporter, luminescence/redox ratio | activity score, % at 18.7 µM | 350,000 compounds, 0.13% hits | AID 602363;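 active = replicate mean at a twofold rise or more, about +100% in these data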;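 note: firefly luciferase made from a UUG start codon reports start codon fidelity; reporter light over untreated wells divided by growth signal over untreated wells; some hits fall short of that in this replicate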
ALR H2O2 inh = inhibitors of human ALR sulfhydryl oxidase, primary screen, biochemical, H2O2 detection, HRP-luminol luminescence, single point; FAD-linked sulfhydryl oxidase ALR (Homo sapiens), P55789; purified ALR, DTT oxidation; inhibition, % (concentration not given with the values); 290,000 compounds, 3.8% hits; AID 485317, 2010;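 active = mean and each replicate at 75% or more; inconclusive = only one of the two met; inactive = neither met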;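 note: stock transfer was 7.5 nL into about 7.5 µL; 0% = neutral wells and 100% = wells with inactivated enzyme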
MC4R ag barr = activates human MC4R beta-arrestin recruitment | AID 540308 | actives 0.98% (n = 360,000) | U2OS MC4R beta-arrestin complementation, luminescence; percent of melanotan II response, DMSO zero | activation, % at 8.9 µM;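 active means activation above a per-plate cutoff, the mean activation of sample wells on that plate plus 3 SD, cut at about 8% in these data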
NALP1 inh = blocks the NALP1 inflammasome reconstituted in yeast; S. cerevisiae NALP1/ASC/caspase-1 growth, X-gal OD620, 72 h; inhibition, % at 10 µM; actives 0.61% (n = 280,000); in the data active means inhibition mostly above about 24%, no sharp cut-off; inactive means mostly below about 32%
MC4R barr ag = human MC4R beta-arrestin agonism confirmation; activation, % at 8.9 µM; actives 31% (n = 2,400); U2OS MC4R beta-arrestin recruitment, luminescence; scaled DMSO 0%, Melanotan II 100%; shares compounds with MC4R ag barr; AID 602192;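 active means mean activation across replicates above the hit cutoff set in the earlier primary screen, cut at about 8% in these data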
MOR-DOR barr ag = OPRM1-OPRD1 heterodimer agonism counter-screen. AID 602194. U2OS PathHunter beta-arrestin, beta-gal luminescence; percent of deltorphin B response, DMSO zero. activation, % at 9.2 µM. shares compounds with MC4R ag barr. actives 5.8% (n = 2,400);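 active means mean activation across replicates exceeds the hit threshold derived in the earlier primary screen, cut at about 18% in these data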;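 further: 100% = deltorphin B at 0.9 µM final and 0% = DMSO alone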
The depositor's hits bear a star; . = not tested or not shown.

Each structure is followed by: HDAC3 inhib	MC4R antagonist	Yeast UUG start	ALR H2O2 inh	MC4R ag barr	NALP1 inh	MC4R barr ag	MOR-DOR barr ag
COc1ccc2c(c1)CCc1c(C(=O)Nc3ccc(OC)c(OC)c3)noc1-2
 : 5	1	.	-54	20*	16	2	8
Cc1ccc(Cn2ccc(NC(=O)c3noc4c3CCc3ccccc3-4)n2)cc1
 : -3	7	.	-13	0	40	.	.
COc1ccc2c(c1)CCc1c(C(=O)Nc3ccn(Cc4ccc(C)cc4)n3)noc1-2
 : -4	-13	-12	-10	30*	2	37*	8
COc1ccccc1CCNC(=O)c1cc(-c2ccccn2)nc2ccc(Br)cc12
 : -7	.	.	-6	.	-32	.	.
COc1ccccc1CCNC(=O)c1cc(-c2ccncc2)nc2ccc(Br)cc12
 : .	7	-7	.	18*	-33	10*	4
CC(=O)c1nn(-c2ccccc2)cc1C(=O)c1ccc(C)cc1
 : 6	-2	-11	-2	-2	.	.	.
CC(=O)c1nn(-c2cccc(Br)c2)cc1C(=O)c1ccc2ccccc2c1
 : 0	13	0	-1	4	20	.	.
CC(=O)c1nn(-c2cccc(C)c2)cc1C(=O)c1cccc(Br)c1
 : -5	-4	-17	-15	12*	.	3	4
CC(=O)c1nn(-c2ccc(Cl)cc2)cc1C(=O)c1ccc(C)cc1
 : -1	2	-9	-2	21*	.	13*	11
CC(=O)c1nn(-c2ccc(Br)cc2)cc1C(=O)c1ccccc1
 : -4	-12	.	2	29*	11	2	19*
COc1ccc(C(=O)c2cn(-c3cccc(Br)c3)nc2C(C)=O)cc1
 : -2	-2	-24	-14	15*	.	2	4
C[C@@H]1CCCCO[C@@H](CN(C)S(=O)(=O)c2cccs2)[C@H](C)CN([C@@H](C)CO)C(=O)c2cc(NC(=O)c3ccccc3)ccc2O1
 : .	.	-3	.	.	.	.	.
C[C@@H]1CN([C@H](C)CO)C(=O)Cc2cc(NC(=O)Nc3ccc4c(c3)OCO4)ccc2O[C@@H]1CN(C)S(=O)(=O)c1ccc(Cl)cc1
 : .	.	-8	.	.	.	.	.
C[C@H](CO)N1C[C@H](C)[C@H](CN(C)C(=O)Cc2cccnc2)Oc2ncc(-c3cccnc3)cc2C1=O
 : .	.	-10	.	.	.	.	.
CCCCC(=O)Nc1cccc(NC(=S)NC(=O)COc2ccccc2Cl)c1
 : 5	2	.	.	18*	11	13*	2

Filtered by structure: the entries above with a Cl atom (three)
Each structure is followed by: HDAC3 inhib	MC4R antagonist	Yeast UUG start	ALR H2O2 inh	MC4R ag barr	NALP1 inh	MC4R barr ag	MOR-DOR barr ag
CC(=O)c1nn(-c2ccc(Cl)cc2)cc1C(=O)c1ccc(C)cc1
 : -1	2	-9	-2	21*	.	13*	11
C[C@@H]1CN([C@H](C)CO)C(=O)Cc2cc(NC(=O)Nc3ccc4c(c3)OCO4)ccc2O[C@@H]1CN(C)S(=O)(=O)c1ccc(Cl)cc1
 : .	.	-8	.	.	.	.	.
CCCCC(=O)Nc1cccc(NC(=S)NC(=O)COc2ccccc2Cl)c1
 : 5	2	.	.	18*	11	13*	2

(more compounds)
Each structure is followed by: HDAC3 inhib	MC4R antagonist	Yeast UUG start	ALR H2O2 inh	MC4R ag barr	NALP1 inh	MC4R barr ag	MOR-DOR barr ag
CC(=O)NC(=S)Nc1ccc(NC(=O)COc2ccc(Cl)cc2Cl)cc1
 : 0	0	-11	-12	31*	21	4	8
O=C(COc1ccccc1)NNC(=S)NC(=O)c1ccc(Cl)cc1Cl
 : 1	.	.	0	.	6	.	.
Cc1ccc(OCC(=O)NC(=S)Nc2cccc(NC(=O)c3ccc(Cl)cc3Cl)c2)cc1
 : -2	-4	.	2	22*	25	7	3
O=C(/C=C/c1ccccc1)NC(=S)Nc1ccc2c3c(cccc13)CC2
 : -1	1	.	-5	-2	24	.	.
O=C(COc1ccc(Cl)cc1Cl)NNC(=S)Nc1ccc(F)cc1
 : -11	3	-1	65	-1	10	.	.
O=C(COc1ccccc1)NC(=S)Nc1ccc2c3c(cccc13)CC2
 : 1	13	.	-9	14*	-12	1	3
COc1cccc(CNC(=O)C[C@H]2CC[C@@H](NC(=O)C3CCOCC3)[C@@H](CO)O2)c1
 : .	.	-6	.	.	.	.	.
CCCC(=O)NC(=S)Nc1cccc(NC(=O)c2ccccc2)c1
 : -4	0	.	6	1	13	.	.
Cc1ccc(OCC(=O)NC(=S)Nc2cccc(NC(=O)c3ccccc3)c2)cc1
 : 0	-7	-9	-12	15*	23	17*	7
NC(Cc1ccc(C(F)(F)F)cc1)c1csc(Nc2ccc(C(=O)c3ccccc3)cc2)n1 (stereo not drawn)
 : .	7	-29	.	13*	.	14*	14
